In the experiment the target is Tumor necrosis factor (Homo sapiens, UniProt P01375). Nature of the experiment: Inhibition Assay: Inhibition assay using TNF-alpha.

IC50 data for one compound are collected here from ChEMBL document CHEMBL3638881, “Compounds for the treatment of inflammatory disorders” (2013).

Each structure is given as a SMILES string. pIC50: −log10 of the molar value.

Usually pIC50 stands for the negative decadic logarithm of the IC50, by convention in mol/L. A lower pIC50 goes with a high IC50. Regarding `CO/N=C(\c1ccc(C#C[C@]2(CN3Cc4ccc(OC)cc4C3=O)NC(=O)NC2=O)cc1)N1CCOCC1`, the negative-log IC50 (pIC50) is 5.91.
